Bioassay records as filed in PubChem BioAssay.
GSIS activator – GLuc luminescence reporter in INS-1E cells, primary screen for activators of glucose-dependent secretion of insulin; INS-1E GLuc reporter insulin secretion, 2-3 h; activation, % at 16.6 µM; actives 0.61% (n = 370,000); AID 743287, 2014;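 active = lowest replicate activation of at least 40%, so every replicate reaches that level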;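 note: 0% = median of neutral control wells and 100% = median of IBMX positive control wells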
RAD54 branch – inhibitors of human RAD54 branch migration, primary screen, biochemical, fluorescence, single point; RAD54 Holliday junction branch migration, FAM/BHQ fluorescence; inhibition, % at 10.4 µM; actives 0.14% (n = 360,000); AID 602329, 2012;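 active = mean normalized replicate activity at least 40 and at least half of replicates scoring 40 or more; inconclusive = only one of the two criteria met; inactive = mean below 40 and under half of replicates reaching 40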;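 note: 0% = median of neutral control wells and 100% = median of positive control wells; inhibitors cause a drop in the FAM fluorescence signal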
CASP6 VEID inh – human caspase-6 inhibitors, primary screen, biochemical, VEID-R110 fluorescence, single point, set 2. AID 686996, 2013. P55212. inhibition, % at 12.5 µM. actives 0.53% (n = 350,000). purified caspase-6, Z-VEID-R110 cleavage fluorescence;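 active = mean inhibition across replicates at least about 35%, with every replicate also reaching that limit, limit read from the data; inconclusive = only one of the two criteria met; inactive = neither criterion met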;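 note: 0% = median of neutral control wells and 100% = no fluorescence left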
UUG fidelity – modulators of yeast start codon fidelity, primary screen, whole organism, S. cerevisiae, single point, plate reader | activity score, % at 18.7 µM | 350,000 tested, 0.13% active | S. cerevisiae UUG-firefly luciferase reporter, luminescence/redox ratio;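 active means replicate mean at a twofold rise or more, about +100% in these data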;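 further: firefly luciferase made from a UUG start codon reports start codon fidelity; reporter light over untreated wells divided by growth signal over untreated wells; some hits fall short of that in this replicate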
RAD52 inh – RAD52 DNA annealing inhibitors, primary screen, biochemical, FRET, single point, set 2 | DNA repair protein RAD52 homolog (Homo sapiens), P43351 | recombinant RAD52 DNA annealing, FRET fluorescence | inhibition, % at 18.7 µM | actives 0.46% (n = 360,000);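 active = every replicate showing at least 50% inhibition; inconclusive = mean inhibition at least 50% but not in every replicate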
PglD DTNB – C. jejuni PglD acetyltransferase inhibitors, primary screen, biochemical, DTNB colorimetric, single point | purified PglD enzyme, DTNB colorimetric CoA detection | UDP-N-acetylbacillosamine N-acetyltransferase PglD (Campylobacter jejuni) | AID 602405, 2012 | actives 0.098% (n = 360,000) | inhibition, % at 12.5 µM; in the data active = inhibition above about 16%, passing the limit was not always enough; inconclusive = no clear call, values can overlap the other calls
DNA binder FP – DNA-binding compounds via dye displacement, dose response, artefact control for RAD52 inhibitor project, biochemical, fluorescence polarization, cherry-pick; shares compounds with RAD52 inh; Salmon sperm DNA/acridine orange FP displacement; AC50, µM; actives 8% (n = 1,000); AID 652128, 2013;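 active = fitted half-maximal concentration for signal loss at or below twice the highest dose tested, in every separate run, actives reach about 64 µM in these data; inconclusive = runs disagree, or flat partial signal loss, or poor fit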
* hit, by the source's call. A selection: hits, their analogues and other compounds. The true share with any hit is near 1.5%.

`Cc1cccc(OCC(=O)Nc2ccc3c(c2)nc(CN2CCCCC2)n3C)c1` gave GSIS activator -14.7, CASP6 VEID inh -13.9, RAD52 inh 66.7* and DNA binder FP inactive.
For COc1cccc2sc3ccc(C#CC4(N)CCCCC4)cc3c(=O)c12 the results were RAD54 branch inconclusive, CASP6 VEID inh -2.7, UUG fidelity -10.1, RAD52 inh 89.6*, PglD DTNB 8.8 and DNA binder FP inactive.
`COc1cccc2sc3cc(C#CC4(O)CCCCC4)ccc3c(=O)c12` gave GSIS activator 0.0, RAD54 branch -14.6, CASP6 VEID inh 1.0, UUG fidelity -23.2, RAD52 inh -109.5 and PglD DTNB 2.0.
Screening COc1cc(/C=N/Nc2ccc(Cl)c(C(=O)O)c2)ccc1OC(=O)c1ccco1 returned GSIS activator 1.1, RAD54 branch 0.6, CASP6 VEID inh 2.9, UUG fidelity 7.0, RAD52 inh -23.0 and PglD DTNB -2.0.
`CC(C)(C)Nc1c2ccccc2nc2ccccc12` gave GSIS activator 19.2, RAD54 branch 32.8, CASP6 VEID inh 1.6, UUG fidelity -0.6, RAD52 inh 19.4 and PglD DTNB -8.7.
Screening OCCCNc1c2ccccc2nc2ccccc12 returned GSIS activator -10.7, RAD54 branch 96.7*, CASP6 VEID inh -2.0, UUG fidelity -17.7, RAD52 inh 94.8*, PglD DTNB -1.3 and DNA binder FP 52.8µM*.
O=C(Nc1ccccc1C(=O)NCc1ccc(Cl)cc1)c1ccco1 was read as GSIS activator -9.4, RAD54 branch -0.4, UUG fidelity -13.8 and PglD DTNB -4.1.
`C[C@]12CC[C@H](O)CC1=CCC1C2CC[C@@]2(C)C1CC[C@@H]2NC(=O)[C@@H](N)Cc1cnc[nH]1` (some centres not stated) gave GSIS activator -0.1, RAD54 branch -8.7, CASP6 VEID inh 0.6, UUG fidelity -6.0, RAD52 inh 79.9*, PglD DTNB 2.6 and DNA binder FP inactive.
For C[C@]12CC[C@H](O)CC1=CCC1C2CC[C@@]2(C)C1CC[C@@H]2NC(=O)[C@@H](N)CO (some centres not stated) the results were GSIS activator 19.0, CASP6 VEID inh -0.2 and RAD52 inh -0.7.
For COCC#Cc1ccc([C@H]2[C@@H](CO)N3C(=O)CN(C(=O)C4CCC4)C[C@@H]23)cc1 the results were GSIS activator -2.7, CASP6 VEID inh -2.0 and RAD52 inh 3.9.
Screening CC1CN(C)C(C)c2c1oc1ccc([N+](=O)[O-])cc21 (configuration not stated) returned GSIS activator 6.5, CASP6 VEID inh -5.0 and RAD52 inh 21.4.
Screening CC1CN(C)C(C)c2c1oc1ccc(N)cc21 (configuration not stated) returned GSIS activator -13.0, CASP6 VEID inh -19.4, RAD52 inh 94.5* and DNA binder FP inactive.
Screening COc1ccc(/C=N/NC(=O)c2cc(OC)c(OC)c(OC)c2)cc1CN1CCc2cc(OC)c(OC)cc2C1C (configuration not stated) returned GSIS activator -22.4, CASP6 VEID inh -7.3, RAD52 inh 52.9* and DNA binder FP inactive.
Screening C1CCCCCC(NCCN2CCNCC2)CCCCC1 returned GSIS activator 84.2, CASP6 VEID inh -26.3, RAD52 inh 64.0* and DNA binder FP inactive.
`O=C(c1ccccc1)c1cccc(C(=O)c2ccccc2)c1` gave RAD54 branch -3.7, UUG fidelity 8.2 and PglD DTNB -4.3.
Nc1cc(N)cc(C(=O)c2ccccc2)c1 was read as GSIS activator 3.8, RAD54 branch 6.2, CASP6 VEID inh 36.4*, UUG fidelity -14.2, RAD52 inh 89.1*, PglD DTNB -0.9 and DNA binder FP inactive.
COc1ccc(NC(=O)N(C)C[C@H]2OCCCC[C@@H](C)Oc3ccc(NS(=O)(=O)c4ccc(F)cc4)cc3C(=O)N([C@H](C)CO)C[C@@H]2C)cc1 was read as GSIS activator -19.1, RAD54 branch 1.0, CASP6 VEID inh 0.9, UUG fidelity 4.9, RAD52 inh -6.6 and PglD DTNB -1.9.
Screening CN(C)CCCNC(=O)/C(=C\c1ccc(-c2cccc([N+](=O)[O-])c2)o1)NC(=O)c1ccccc1 returned GSIS activator -3.8, CASP6 VEID inh -13.3 and RAD52 inh 49.2.
For Cc1ccc(C(=O)N/C(=C\c2ccc(-c3cccc([N+](=O)[O-])c3)o2)C(=O)NCCCN(C)C)cc1 the results were RAD54 branch 19.4, CASP6 VEID inh -12.9, UUG fidelity -9.9, RAD52 inh 66.9*, PglD DTNB 2.3 and DNA binder FP inactive.
For CN(C)CCNc1nc2c(c(=O)[nH]c(=O)n2C)n1CC(O)COc1ccc(Cl)cc1 (configuration not stated) the results were GSIS activator 20.4, RAD54 branch -7.1, UUG fidelity -24.6 and PglD DTNB 3.0.

In the list so far, two have an NH in an aromatic ring.
`C[C@]12CC[C@H](O)CC1=CCC1C2CC[C@@]2(C)C1CC[C@@H]2NC(=O)[C@@H](N)Cc1cnc[nH]1` (some centres not stated) gave GSIS activator -0.1, RAD54 branch -8.7, CASP6 VEID inh 0.6, UUG fidelity -6.0, RAD52 inh 79.9*, PglD DTNB 2.6 and DNA binder FP inactive.
For CN(C)CCNc1nc2c(c(=O)[nH]c(=O)n2C)n1CC(O)COc1ccc(Cl)cc1 (configuration not stated) the results were GSIS activator 20.4, RAD54 branch -7.1, UUG fidelity -24.6 and PglD DTNB 3.0.

Next compounds:
`CCSc1ccc(-c2cc(NC=O)c3ncc(-c4cccc(C(=O)N(C)C)c4)n3c2)cc1` gave GSIS activator -26.1, RAD54 branch -8.0, CASP6 VEID inh 0.3, UUG fidelity -16.4, RAD52 inh -16.0 and PglD DTNB -2.0.
For CCSc1ccc(-c2cc(NC=O)c3ncc(-c4cccc(C(=O)NCCN(C)C)c4)n3c2)cc1 the results were GSIS activator 25.6, RAD54 branch 9.8, CASP6 VEID inh -95.6, UUG fidelity -19.5, RAD52 inh 65.8*, PglD DTNB 0.7 and DNA binder FP inactive.
For CC(=O)Nc1cc(-c2ccccc2N(C)C)cn2c(-c3cccc(C(F)(F)F)c3)cnc12 the results were GSIS activator -6.2, RAD54 branch 11.3, CASP6 VEID inh -0.2, UUG fidelity 12.7, RAD52 inh -28.6 and PglD DTNB 5.4.
Screening CN(C)CCNC(=O)c1cccc(-c2cnc3c(NC=O)cc(/C=C/c4ccccc4)cn23)c1 returned GSIS activator 16.2, RAD54 branch 17.7, CASP6 VEID inh -64.6, UUG fidelity -5.7, RAD52 inh 79.7*, PglD DTNB -2.2 and DNA binder FP inactive.
CC(=O)Nc1cc(-c2cccc(C(=O)NCCN(C)C)c2)cn2c(-c3cccc(C(F)(F)F)c3)cnc12 was read as GSIS activator 169.8*, RAD54 branch 43.0, CASP6 VEID inh -150.0, UUG fidelity 1.7, RAD52 inh 85.9*, PglD DTNB 5.5 and DNA binder FP inactive.
